Laboratory results published in article PMC10567826.

Target: T1, p65 nuclear factor kappa-light-chain-enhancer of activated B cells (NF-κB) (human (endogenous in THP-1-derived macrophages)), Q04206
T1 chain: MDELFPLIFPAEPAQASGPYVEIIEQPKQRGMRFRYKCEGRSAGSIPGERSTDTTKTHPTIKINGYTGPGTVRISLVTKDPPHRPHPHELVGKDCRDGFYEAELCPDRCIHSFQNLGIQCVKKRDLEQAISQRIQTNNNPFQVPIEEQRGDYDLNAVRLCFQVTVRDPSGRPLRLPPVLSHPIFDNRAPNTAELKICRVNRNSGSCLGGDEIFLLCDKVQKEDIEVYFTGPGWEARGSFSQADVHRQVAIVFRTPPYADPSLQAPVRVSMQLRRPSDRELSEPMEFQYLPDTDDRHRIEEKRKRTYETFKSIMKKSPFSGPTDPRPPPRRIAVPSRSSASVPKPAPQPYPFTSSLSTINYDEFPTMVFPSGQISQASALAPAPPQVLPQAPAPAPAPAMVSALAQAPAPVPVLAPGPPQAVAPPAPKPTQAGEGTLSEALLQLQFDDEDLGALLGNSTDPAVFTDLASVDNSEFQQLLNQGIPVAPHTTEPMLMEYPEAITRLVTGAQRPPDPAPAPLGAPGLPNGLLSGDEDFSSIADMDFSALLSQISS
Experiment: native gel or EMSA; native ('naïve') PAGE of macrophages transfected with or without FLAG-DHX9 and treated with 0, 40 or 80 μg/mL oxLDL; p65 dimer detected
Settings: remark: other sources report otherwise

stoichiometry N: 2
B1: p65 nuclear factor kappa-light-chain-enhancer of activated B cells (NF-κB), Q04206 1-551 (natural protein)
chain: MDELFPLIFPAEPAQASGPYVEIIEQPKQRGMRFRYKCEGRSAGSIPGERSTDTTKTHPTIKINGYTGPGTVRISLVTKDPPHRPHPHELVGKDCRDGFYEAELCPDRCIHSFQNLGIQCVKKRDLEQAISQRIQTNNNPFQVPIEEQRGDYDLNAVRLCFQVTVRDPSGRPLRLPPVLSHPIFDNRAPNTAELKICRVNRNSGSCLGGDEIFLLCDKVQKEDIEVYFTGPGWEARGSFSQADVHRQVAIVFRTPPYADPSLQAPVRVSMQLRRPSDRELSEPMEFQYLPDTDDRHRIEEKRKRTYETFKSIMKKSPFSGPTDPRPPPRRIAVPSRSSASVPKPAPQPYPFTSSLSTINYDEFPTMVFPSGQISQASALAPAPPQVLPQAPAPAPAPAMVSALAQAPAPVPVLAPGPPQAVAPPAPKPTQAGEGTLSEALLQLQFDDEDLGALLGNSTDPAVFTDLASVDNSEFQQLLNQGIPVAPHTTEPMLMEYPEAITRLVTGAQRPPDPAPAPLGAPGLPNGLLSGDEDFSSIADMDFSALLSQISS
